Assay results from patent publication US8337856B2, “Methods of treatment using anti-ERBB antibody-maytansinoid conjugates” (Immunogen, Inc., priority 2000, dated 2012).
Entries after “also recorded” stand apart in the source; their conditions may differ.

Experiments:
HER2 tumor transplants = assay: HER2 transgenic tumor transplant in nude mice, doses and schedule (FIG. 12); assay type: in vivo; conditions: conjugate 10-300 μg DM1/kg once or twice a week, 5 doses, HERCEPTIN® 18 mg/kg twice a week
Experimental: In yet another experiment, the amount of HERCEPTIN®-DM1 conjugate as well as the frequency of administration were varied while keeping the total number of doses at five. The evaluation was carried out in nude mice containing HER2 tumor transplants in mammary pads. […] Another group of animals received HERCEPTIN®-DM1 at 300 or 100 μg DM1/kg once a week for the total of 5 doses.

HER2-transgenic tumors [1] = assay: HER2 transgenic tumor transplant, dosing regimens (FIG. 11, 13, 14); assay type: in vivo, mouse; conditions: comparison groups to HERCEPTIN®-DM1
Experimental: Mice with 100 mm^3 tumors were injected i.v. with HERCEPTIN®-DM1 or RITUXAN®-DM1 at doses of 100 or 300 μg DM1/kg twice a week or 300 μg DM1/kg once a week. All animals received 5 doses.
A second dose of HERCEPTIN®-DM1 following the beginning of tumor regrowth was effective in shrinking the tumors again.
The results of a similar experiment are depicted in FIG. 13. The results of three different dosing regimens of HERCEPTIN®-DM1 conjugate on tumor size are shown compared to matching dosing regimens of RITUXAN®-DM1. […] This was true both when the HERCEPTIN®-DM1 was administered once a week and when it was administered twice a week.

tumors overexpress HER2 = conditions: cited from earlier work
HER2-transgenic tumors [2] = assay: MMTV-HER2-transgenic tumors transplanted into mammary fat pad of FVB mice (FIG. 9); assay type: in vivo, mouse; conditions: conjugate i.v. on 5 consecutive days, antibodies IP twice per week 10 mg/kg
Experimental: FIG. 9 illustrates the effect of HERCEPTIN®-DM1 on HER2-transgenic tumors. Two mm^3 pieces of MMTV-HER2-transgenic tumors were transplanted into the mammary fat pad of FVB mice. When tumors reached 250 mm^3, groups of 8 mice were injected i.v. on 5 consecutive days with a HERCEPTIN®-DM1 conjugate.
The amount of HER2 extracellular domain (ECD) shed into serum was measured and found to be about 1.2 ng/ml (Huang et al., supra). This mouse subsequently developed a mammary tumor at 5 months of age, after bearing 4 litters. The tumor was surgically resected under aseptic conditions and minced into small pieces, 2 mm^3, which were then transplanted into the mammary fat pad of wild-type FVB female mice. […] Tumors developed in 22 of 31 recipient mice, with a latency of 5 weeks. With subsequent passage, tumors developed with shorter latency and grew more rapidly, and tumor incidence increased to >95% of recipients. HER2 expression, as determined by immunohistochemical staining, was 3+ but heterogeneous in the primary tumor, but became uniformly 3+ after the first passage.
In addition, HER2 appears to be activated in the tumor cells, as evidenced by the binding of an anti-tyrosine phosphorylated HER2 antibody (FIG. 10).
RITUXAN®, an unrelated anti-CD20 monoclonal antibody, was used as a negative control for these studies. […] After approximately 4 weeks, tumors began to regrow. […]

[3] = breast cancer patients progressed after conventional chemotherapy

HERCEPTIN®: humanized version of murine anti-HER2 antibody 4D5, IgG1 isotype
control of growth of mammary tumors (HER2 tumor transplants): failed to control the growth of mammary tumors | tumor growth in treated animals (HER2-transgenic tumors [1]): rapid growth of tumors | median time to disease progression (tumors overexpress HER2; all treated patients, clinical trial preceding marketing approval): 3.1 months | complete responses (tumors overexpress HER2; [3]): 4 % of patients | median duration of responses (tumors overexpress HER2; [3]): 9.1 months | partial responses (tumors overexpress HER2; [3]): 11% | effect on growth of the transplanted tumors (HER2-transgenic tumors [2]): only a modest effect; also recorded: little response
